Measured values as given in patent US7078189B2, “Preparing membrane receptors from extracellular baciloviruses” (priority 1997, dated 2006).

Protein sequences, listed by entry. Tags and fused reporters are not part of them.
UniProt P21728, whole entry: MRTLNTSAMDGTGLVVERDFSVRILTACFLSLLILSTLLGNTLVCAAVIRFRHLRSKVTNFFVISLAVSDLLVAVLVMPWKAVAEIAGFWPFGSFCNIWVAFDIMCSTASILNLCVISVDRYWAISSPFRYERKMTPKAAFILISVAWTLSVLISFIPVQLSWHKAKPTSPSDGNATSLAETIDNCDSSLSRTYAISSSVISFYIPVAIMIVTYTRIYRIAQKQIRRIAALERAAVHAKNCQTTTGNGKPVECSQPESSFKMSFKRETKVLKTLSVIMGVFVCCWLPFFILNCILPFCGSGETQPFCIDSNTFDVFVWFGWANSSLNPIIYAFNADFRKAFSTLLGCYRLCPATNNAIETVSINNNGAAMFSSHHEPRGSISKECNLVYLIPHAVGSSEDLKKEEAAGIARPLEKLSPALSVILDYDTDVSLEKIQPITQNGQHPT

Biological target: D1-dopaminergic receptor (Homo sapiens, UniProt P21728)
Assay: Saturation assay of D1-dopaminergic receptor (D1-R) expressed in viral particles
Conditions: D1 in extracellular baculoviruses

[^125I]-R(+)SCH-23390 [[^125I]-SCH23390]
Kd (0.02-3 nM [125I]-R(+)SCH-23390, non-specific binding with 10 μM haloperidol): 0.118 ± 0.063 nM | BMax ([125I]-SCH23390 saturation): 5.21 ± 0.84 pmol/mg of protein
